≈ marks a conversion by molar mass, not a printed value.
Assays:
Assay type in all cases: functional
[1] = test system: Escherichia coli; assay: Compound was evaluated for antibacterial activity against Escherichia coli
Summary of the method: (§1)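 Broth microdilution MIC against E. coli ATCC 25922, P. aeruginosa ATCC 27853, S. aureus ATCC 25723. Cultures grown to midlog phase in nutrient broth, standardized to 0.5 McFarland, diluted to 5 × 10^4 cells per well. Equal volume of peptide added, 1:2 serial dilutions giving 256-2 µg/mL in medium. MIC is the lowest concentration with no turbidity […]. Median of three to seven tests.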

[2] = test system: Pseudomonas aeruginosa; assay: Compound was evaluated for antibacterial activity against Pseudomonas aeruginosa; summary of the method: as §1
[3] = test system: Staphylococcus aureus; assay: Compound was evaluated for antibacterial activity against Staphylococcus aureus; summary of the method: as §1

CC[C@H](C)[C@H](NC(=O)CN)C(=O)NCC(=O)N[C@@H](C)C(=O)N[C@H](C(=O)N[C@@H](CC(C)C)C(=O)N[C@@H](CCCCN)C(=O)N[C@H](C(=O)N[C@@H](CC(C)C)C(=O)N[C@H](C(=O)N[C@H](C(=O)NCC(=O)N[C@@H](CC(C)C)C(=O)N1CCC[C@H]1C(=O)N[C@@H](C)C(=O)N[C@@H](CC(C)C)C(=O)N[C@H](C(=O)N[C@@H](CO)C(=O)N[C@@H](Cc1c[nH]c2ccccc12)C(=O)N[C@H](C(=O)N[C@@H](CCCCN)C(=O)N[C@@H](CCCNC(=N)N)C(=O)N[C@@H](CCCCN)C(=O)N[C@@H](CCCNC(=N)N)C(=O)N[C@@H](CCC(N)=O)C(=O)N[C@@H](CCC(N)=O)C(N)=O)[C@@H](C)CC)[C@@H](C)CC)[C@@H](C)O)[C@@H](C)O)C(C)C)C(C)C [MELITTIN]
MIC [1]: 3 µM (≈ 8.54 µg/mL) | MIC [2]: 6 µM (≈ 17.1 µg/mL) | MIC [3]: 3 µM (≈ 8.54 µg/mL)

From ChEMBL document CHEMBL1129261, “De novo antimicrobial peptides with low mammalian cell toxicity” (1996)
